These are literature values, as cited in PMC12154458, “High-Throughput Screens of Repurposing Hub and DOS Chemical Libraries Reveal Compounds with Novel and Potent Inhibitory Activity Against the Essential Non-Neuronal Acetylcholinesterase of Schistosoma mansoni (SmTAChE)” (International Journal of Molecular Sciences, 2025).

The chains behind the UniProt entries cited, without tags or fusion partners. Residues count along the entry.
UniProt P22303, 32-614 limits assumed: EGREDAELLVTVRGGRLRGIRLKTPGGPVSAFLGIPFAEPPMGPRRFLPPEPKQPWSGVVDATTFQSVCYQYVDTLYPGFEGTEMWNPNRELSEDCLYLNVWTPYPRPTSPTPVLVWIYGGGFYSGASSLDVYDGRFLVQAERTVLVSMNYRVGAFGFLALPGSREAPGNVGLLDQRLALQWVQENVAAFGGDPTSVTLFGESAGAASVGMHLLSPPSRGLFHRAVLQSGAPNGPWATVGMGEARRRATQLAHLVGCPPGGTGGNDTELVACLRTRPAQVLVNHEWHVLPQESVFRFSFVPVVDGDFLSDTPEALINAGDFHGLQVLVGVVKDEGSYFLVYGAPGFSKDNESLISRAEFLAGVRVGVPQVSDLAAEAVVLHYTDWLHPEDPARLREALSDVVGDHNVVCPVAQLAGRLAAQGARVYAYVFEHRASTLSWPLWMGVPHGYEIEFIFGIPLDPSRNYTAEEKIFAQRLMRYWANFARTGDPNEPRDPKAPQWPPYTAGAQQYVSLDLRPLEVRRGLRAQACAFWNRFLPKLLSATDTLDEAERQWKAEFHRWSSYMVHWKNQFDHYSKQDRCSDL

Usually IC50 stands for the concentration that gives 50% inhibition.

In this series the target is recombinant human acetylcholinesterase, rHsAChE (Homo sapiens, UniProt P22303). To be noted: read-out: IC50 human AChE; preliminary screening of Broad Institute Validation Library; cited from earlier work.

In the case of `COc1cc(CNCCc2ccccc2F)ccc1OCC(=O)N1CCCCC1`, the IC50 is 151 µM.
